The list shows a part of the results, in another mix than the full data. Active and inactive are the calls of the source. Rule for the calls: active = hit-call score of the fitted dose curve at least 0.9, where 1 is the maximum; inactive = score below 0.9.
Legend:
[1] = APR_HepG2_P-H2AX_72hr: Apredica 72-hour HepG2 Assay for H2AX Phosphorylation (AID 2282916); details: imaging, actives raise or lower the signal;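 note: phospho-histone H2A.x immunostain intensity per cell marking DNA damage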
Procedure, shortened: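 Phospho-H2A.x imaging endpoint in HepG2 after 72 hr compound exposure (0.39–200 uM, duplicate wells). Activity derived by bidirectional curve fitting with DMSO as baseline.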

[2] = APR_HepG2_MitoMembPot_72hr: Apredica 72-hour HepG2 Assay for Mitochondrial Membrane Potential (AID 2282917); details: imaging, actives raise or lower the signal
Procedure, shortened: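 HepG2 cells exposed 72 h to compounds at 0.39–200 uM (0.5% v/v DMSO, duplicates); MitoTracker Red CMXRos 250 nM loaded 30 min before 3.7% formaldehyde fixation, imaged by HCS fluorescence. Bidirectional fit versus DMSO.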

[3] = APR_HepG2_MitoticArrest_72hr: Apredica 72-hour HepG2 Assay for Mitotic Arrest (AID 2282918); details: high-content imaging, actives raise or lower the signal
Procedure, shortened: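 Using high-content imaging of fixed HepG2 cells, phospho-histone H3 signal was measured following a 72 hr incubation with ten-point compound dilutions up to 200 uM. DMSO served as the negative control and baseline for bidirectional curve fitting.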

[4] = APR_HepG2_MicrotubuleCSK_72hr: Apredica 72-hour HepG2 Assay for Microtubule CSK Stabilty (AID 2282919); details: HepG2 microtubule cytoskeleton, high-content imaging, actives raise or lower the signal
Procedure, shortened: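 Ten-point dosing (0.39–200 uM, 0.5% DMSO) of HepG2 for 72 hr, with taxol as the cytoskeletal positive control. The cells were formaldehyde-fixed and then stained with alpha-tubulin/Cy5 and Hoechst. Imaging at 20x used a −2 um Z offset for tubulin.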

[5] = APR_HepG2_P-H2AX_24hr: Apredica 24-hour HepG2 Assay for H2AX Phosphorylation (AID 2282920); details: high-content imaging, actives raise or lower the signal
Method: APR_HepG2_24hr is a cell-based, multiplexed-readout assay that uses HepG2, a human liver cell line, with measurements taken at 24 hours after chemical dosing in a 384-well plate.APR_HepG2_P-H2AX_24hr is one of 10 assay component(s) measured or calculated from the APR_HepG2_24hr assay. It is designed to make measurements of dna content, a form of viability reporter, as detected with fluorescence intensity signals by HCS Fluorescent Imaging technology.Data from the assay component APR_HepG2_P-H2AX_24hr was analyzed into 1 assay endpoint. This assay endpoint, APR_HepG2_P-H2AX_24hr, was analyzed with bidirectional fitting relative to DMSO as the negative control and baseline of activity. Using a type of viability reporter, measures of protein for gain or loss-of-signal activity can be used to understand the signaling at the pathway-level as they relate to the gene . Furthermore, this assay endpoint can be referred to as a primary readout, because this assay has produced multiple assay endpoints where this one serves a signaling function. To generalize the intended target to other relatable targets, this assay endpoint is annotated to the dna binding intended target family, where the subfamily is cellular response to DNA damage stimulus.
(§1) Cells were treated with dimethyl sulfoxide (DMSO) as a solvent control at a final concentration of 0.5% v/v or with compounds in DMSO with a resulting final DMSO concentration of 0.5% v/v. Compound treatment was done at concentrations of 0.39, 0.78, 1.56, 3.12, 6.24, 12.5, 25, 50, 100, and 200 uM in duplicate on each plate. Cells were treated with compounds for 1, 24, or 72 hr. Carbonyl […] m-chloro-phenylhydrazone (CCCP) and taxol were used as positive controls for mitochondrial function and cytoskeletal stability, respectively; DMSO served as the negative control for this experiment. Cells were fixed by the direct addition of 50 uL formaldehyde in Hank's Balanced Salt Solution (HBSS) to a final concentration of 3.7%. After incubation in the fixation medium for 30 min at room temperature (293-298 K), cells were rinsed twice with HBSS and treated with cell permeabilization buffer (16 uL of 0.5% Triton X-100) for 10 min at room temperature (293-298 K) before labeling. For mitochondrial membrane potential and mitochondrial measurements, pre-fixed cells were incubated with 50 uL of MitoTracker Red CMXRos (Invitrogen) at a concentration of 250 nM for 30 min before fixation. In the remaining cases, post-fixed cells were labeled by incubation with a multiplexed mixture of primary antibodies in HBSS for 60 min at room temperature (293-298 K) to detect immunoreactivity of c-Jun (1:500), phospho-histone H3 (1:100), phospho-histone H2A.x (1:200), p53 (1:400), alpha-tubulin (1:200) and Hoechst 33342 (2 ug/mL). Cells were labeled for multiplexed imaging on two separate plates: a) Hoechst 33342, MitoTracker Red, phospho-histone H3, and alpha-tubulin, and b) Hoechst 33342, phospho-histone H2A.x, and c-Jun. A final rinse with HBSS (50 uL) was performed before analysis. The primary and secondary antibodies for the proteins were phospho-histone H3 (rabbit anti-phospho-histone H3 and FITC-donkey anti-rabbit IgG), phospho-histone H2A.x (mouse anti-phospho-histone H2A.x and FITC-donkey anti-mouse IgG), c-Jun (rabbit anti-phospho-c-Jun and Cy3-donkey anti-rabbit IgG), p53 (sheep anti-p53 and Cy5-donkey anti-sheep IgG), alpha-tubulin (mouse anti-alpha-tubulin and Cy5-donkey anti-mouse IgG). […]

[6] = APR_HepG2_StressKinase_72hr: Apredica 72-hour HepG2 Assay for Stress Kinase (AID 2282921); details: HepG2 stress kinase (phospho-c-Jun) imaging, actives raise or lower the signal
Method: (§2) APR_HepG2_72hr is a cell-based, multiplexed-readout assay that uses HepG2, a human liver cell line, with measurements taken at 72 hours after chemical dosing in a 384-well plate.APR_HepG2_StressKinase_72hr is one of 10 assay component(s) measured or calculated from the APR_HepG2_72hr assay. It is designed to make measurements of enzyme activity, a form of enzyme reporter, as detected with fluorescence intensity signals by HCS Fluorescent Imaging technology.Data from the assay component APR_HepG2_StressKinase_72hr was analyzed into 1 assay endpoint. This assay endpoint, APR_HepG2_StressKinase_72hr, was analyzed with bidirectional fitting relative to DMSO as the negative control and baseline of activity. Using a type of enzyme reporter, measures of protein for gain or loss-of-signal activity can be used to understand the signaling at the pathway-level as they relate to the gene . Furthermore, this assay endpoint can be referred to as a primary readout, because this assay has produced multiple assay endpoints where this one serves a signaling function. To generalize the intended target to other relatable targets, this assay endpoint is annotated to the cell cycle intended target family, where the subfamily is stress response.
as §1

[7] = APR_HepG2_StressKinase_24hr: Apredica 24-hour HepG2 Assay for Stress Kinase (AID 2282922); details: HepG2 stress kinase (phospho-c-Jun) imaging, actives raise or lower the signal
Method: as §2, with “APR_HepG2_24hr” for “APR_HepG2_72hr”, “24” for “72”, “plate.APR_HepG2_StressKinase_24hr” for “plate.APR_HepG2_StressKinase_72hr”, “APR_HepG2_StressKinase_24hr” for “APR_HepG2_StressKinase_72hr”, “APR_HepG2_StressKinase_24hr,” for “APR_HepG2_StressKinase_72hr,”
as §1

[8] = APR_HepG2_p53Act_72hr: Apredica 72-hour HepG2 Assay for p53 Activation (AID 2282923); details: high-content imaging, actives raise or lower the signal;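 note: average cellular p53 protein immunofluorescence intensity in HepG2 cells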
Procedure, shortened: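 Fixed-cell p53 staining (sheep primary, Cy5 secondary) measured by fluorescence imaging following 72 hr treatment at 0.39–200 uM in 0.5% DMSO; DMSO served as negative control and baseline.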

[9] = APR_HepG2_MitoMass_72hr: Apredica 72-hour HepG2 Assay for Mitochondrial Mass (AID 2282924); details: high-content imaging, actives raise or lower the signal;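 note: MitoTracker Red CMXRos stain intensity per cell imaged as mitochondrial mass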
Procedure, shortened: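 Steps: treat HepG2 72 hr (0.39–200 uM, duplicate wells); load MitoTracker Red CMXRos, 250 nM, 30 min; fix with 3.7% formaldehyde, permeabilise with 0.5% Triton X-100; capture images, nuclei via Hoechst 33342; fit bidirectionally against DMSO.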

[10] = APR_HepG2_NuclearSize_72hr: Apredica 72-hour HepG2 Assay for Nuclear Size (AID 2282925); details: high-content imaging, actives raise or lower the signal
Procedure, shortened: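 Compounds (0.39–200 uM, final DMSO 0.5%) were applied to HepG2 for 72 hr. Cells were then formaldehyde-fixed, permeabilized and labelled with Hoechst 33342. Nuclear diameter was quantified from six images per well.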

| SMILES | outcome [1] | outcome [2] | outcome [3] | outcome [4] | outcome [5] | outcome [6] | outcome [7] | outcome [8] | outcome [9] | outcome [10] | AC50 [1] | AC50 [3] | AC50 [8] | AC50 [9] |
| --- | --- | --- | --- | --- | --- | --- | --- | --- | --- | --- | --- | --- | --- | --- |
| O=[N+]([O-])c1cccc([N+](=O)[O-])c1 | inactive | inactive | inactive | inactive | inactive | inactive | inactive | inactive | inactive | inactive |  |  |  |  |
| Cc1cccc([N+](=O)[O-])c1[N+](=O)[O-] |  | inactive |  | inactive | inactive | inactive | inactive |  |  | inactive | active: 76.3 µM | active: 68.2 µM | active: 68.4 µM | active: 122 µM |
| CC(C)OP(C)(=O)OC(C)C | inactive | inactive | inactive | inactive | inactive | inactive | inactive | inactive | inactive | inactive |  |  |  |  |
| Cc1ccc([N+](=O)[O-])cc1[N+](=O)[O-] | inactive | inactive | inactive | inactive | inactive | inactive | inactive | inactive | inactive | inactive |  |  |  |  |
| Cc1c([N+](=O)[O-])cccc1[N+](=O)[O-] | inactive | inactive | inactive | inactive | inactive | inactive | inactive | inactive | inactive | inactive |  |  |  |  |
